According to the NIST ThermoML archive (doi:10.1016/j.fluid.2016.07.025):

CCCCOCCCC [dibutyl ether]
Conditions	speed of sound, Rayleigh light scatter [m/s]	thermal diffusivity, Rayleigh light scattering [m2/s]
553.15 K, Gas	112.77	1.63e-07
553.15 K, Liquid	231.03	3.89e-08
558.15 K, Gas	107.6	1.46e-07
558.15 K, Liquid	209.5	3.81e-08
561.15 K, Gas	104.29	1.35e-07
561.15 K, Liquid	196.2	3.75e-08
564.15 K, Gas	100.83	1.24e-07
564.15 K, Liquid	182.53	3.69e-08
567.15 K, Gas	97.21	1.12e-07
567.15 K, Liquid	168.45	3.62e-08
570.15 K, Gas	93.4	1e-07
570.15 K, Liquid	153.86	3.54e-08
573.15 K, Gas	89.42	8.61e-08
573.15 K, Liquid	138.64	3.44e-08
576.15 K, Gas	85.25	7e-08
576.15 K, Liquid	122.58	3.3e-08
577.15 K, Gas	83.81	–
579.15 K, Gas	–	5.02e-08
579.15 K, Liquid	105.33	3.1e-08
582.15 K, Liquid	86.01	–

Rayleigh light scattering
Conditions	speed of sound, Liquid [m/s]	thermal diffusivity, Fluid (supercritical or subcritical phases) [m2/s]
586.31 K, 6500 kPa	–	5.63e-08
586.41 K, 4000 kPa	–	4.65e-08
586.44 K, 4500 kPa	237.17	–
586.46 K, 5500 kPa	276.64	5.46e-08
586.5 K, 4500 kPa	–	5.06e-08
586.51 K, 6500 kPa	307.09	–
586.75 K, 7500 kPa	332.28	5.73e-08
586.81 K, 3500 kPa	184.9	4.16e-08
586.81 K, 3750 kPa	–	4.41e-08
588.4 K, 5500 kPa	–	5.44e-08
588.45 K, 7500 kPa	–	5.73e-08
588.47 K, 4500 kPa	–	5.04e-08
588.49 K, 3500 kPa	–	3.14e-08
588.49 K, 3750 kPa	–	4.09e-08
588.51 K, 4000 kPa	–	4.55e-08
588.55 K, 6500 kPa	–	5.62e-08
589.94 K, 3500 kPa	143.08	2.86e-08
589.94 K, 3750 kPa	–	3.86e-08
589.99 K, 4500 kPa	–	5.01e-08
590.01 K, 4000 kPa	–	4.46e-08
590.03 K, 4500 kPa	207.46	–
590.29 K, 5500 kPa	250.4	5.42e-08
590.47 K, 6500 kPa	283.36	–
590.59 K, 6500 kPa	–	5.61e-08
590.59 K, 7500 kPa	311.32	5.73e-08
591.3 K, 5500 kPa	–	5.41e-08
591.35 K, 3500 kPa	–	3.02e-08
591.35 K, 3750 kPa	–	3.62e-08
591.52 K, 7500 kPa	–	5.73e-08
591.54 K, 4500 kPa	–	4.99e-08
